{
  "sequences": {"note": "Sequences of proteins named here, by UniProt entry; tags and fusion partners are left off.", "UniProt P63165, whole entry": "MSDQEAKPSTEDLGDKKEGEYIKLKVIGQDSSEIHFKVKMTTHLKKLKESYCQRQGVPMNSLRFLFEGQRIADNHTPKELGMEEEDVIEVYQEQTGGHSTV"},
  "source": "PubChem BioAssay AID602429",
  "about": "(Sanford-Burnham Center for Chemical Genomics, 2012)",
  "note": "The list shows a part of the results, in another mix than the full data. Activity calls are given as the source filed them. No stated cut-off is given here; in the data, active means inhibition above about 37%; inactive means the rest.",
  "data": [
    {"molecular_target": "Small ubiquitin-related modifier 1 (Homo sapiens) (UniProt P63165)", "assay": "modulators of SUMO1 protein-protein interactions, primary screen, biochemical, uHTS (AID 602429)", "details": "SUMO1 binding to a labelled peptide, TR-FRET, 1 h; at 20 µM; hits give high values", "values": [
      {"compound": "CCC(=O)N(c1ccccc1)C1(COC)CCN(CCn2nnn(CC)c2=O)CC1", "inhibition": "inactive: 3.46%"},
      {"compound": "CCC(=O)N(c1ccccc1)C1(COC)CCN(CCc2cccs2)CC1", "inhibition": "inactive: -0.82%"}
    ]}
  ]
}
